Tests used:
CLR/RAMP2 receptor = CLR/RAMP2 receptor (Homo sapiens, UniProt O60895+Q16602); test: CLR/RAMP2 arrestin receptor activation assay (agonist); type: cell-based; design: host or cells: CHO-K1 cells; conditions: CHO-K1 cells stably expressing CLR/RAMP2, positive control ADM, read-out: CLR/RAMP 2 EC50
CLR/RAMP1 receptor = CLR/RAMP1 receptor (Homo sapiens, UniProt O60894+Q16602); test: CLR/RAMP1 cAMP receptor activation assay (agonist); type: cell-based; design: host or cells: 1321N1 cells; conditions: 1321N1 cells stably expressing CLR/RAMP1, positive control β-CGRP, read-out: CLR/RAMP 1 EC50

Protein sequences, listed by entry. Tags and fused reporters are not part of them. Residues count along the entry.
UniProt O60895, 43-175: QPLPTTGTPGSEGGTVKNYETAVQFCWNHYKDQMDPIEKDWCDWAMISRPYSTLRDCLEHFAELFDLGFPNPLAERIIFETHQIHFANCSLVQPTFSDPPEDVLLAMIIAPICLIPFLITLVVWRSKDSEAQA
UniProt Q16602, 23-461: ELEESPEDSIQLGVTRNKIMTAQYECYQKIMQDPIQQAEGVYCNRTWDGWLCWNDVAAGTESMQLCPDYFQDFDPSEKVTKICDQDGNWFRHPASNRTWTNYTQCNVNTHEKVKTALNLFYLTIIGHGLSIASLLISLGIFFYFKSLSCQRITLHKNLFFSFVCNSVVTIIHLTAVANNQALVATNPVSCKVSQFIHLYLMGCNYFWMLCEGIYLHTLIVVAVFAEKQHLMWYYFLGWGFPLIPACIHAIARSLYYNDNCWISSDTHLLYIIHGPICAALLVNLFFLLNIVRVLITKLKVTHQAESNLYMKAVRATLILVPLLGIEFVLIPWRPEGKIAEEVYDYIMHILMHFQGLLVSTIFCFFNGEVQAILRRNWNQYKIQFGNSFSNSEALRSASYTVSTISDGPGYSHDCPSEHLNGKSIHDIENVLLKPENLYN
UniProt O60894, 27-148: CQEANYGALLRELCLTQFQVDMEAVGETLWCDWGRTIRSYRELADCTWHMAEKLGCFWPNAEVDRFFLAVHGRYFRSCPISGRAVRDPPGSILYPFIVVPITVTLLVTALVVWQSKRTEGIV

Structure (SMILES) | EC50 (CLR/RAMP2 receptor) [nM] | EC50 (CLR/RAMP1 receptor) [nM]
CCCCCCCCCCCCCCCC(=O)NCCCC[C@H](NC(=O)COCCOCCN)C(=O)NCC(=O)N[C@H]1CSSC[C@@H](C(=O)N[C@H](C(=O)N[C@H](C(=O)N[C@@H](CCC(N)=O)C(=O)N[C@@H](CCCCN)C(=O)N[C@@H](CC(C)C)C(=O)N[C@@H](C)C(=O)N[C@@H](Cc2c[nH]cn2)C(=O)N[C@@H](CCC(N)=O)C(=O)N[C@H](C(=O)N[C@@H](Cc2ccc(O)cc2)C(=O)N[C@@H](CCC(N)=O)C(=O)N[C@@H](Cc2ccccc2)C(=O)N[C@H](C(=O)N[C@@H](CC(=O)O)C(=O)N[C@@H](CCCCN)C(=O)N[C@@H](CC(=O)O)C(=O)N[C@@H](CCCCN)C(=O)N[C@@H](CC(=O)O)C(=O)N[C@@H](CO)C(=O)N[C@@H](C)C(=O)N2CCC[C@H]2C(=O)N[C@H](C(=O)N[C@@H](CC(=O)O)C(=O)N2CCC[C@H]2C(=O)N[C@@H](CO)C(=O)N[C@@H](CO)C(=O)N2CCC[C@H]2C(=O)N[C@@H](Cc2c[nH]cn2)C(=O)N[C@@H](CO)C(=O)N[C@@H](Cc2ccc(O)cc2)C(N)=O)C(C)C)[C@@H](C)O)[C@@H](C)CC)C(C)C)[C@@H](C)O)NC(=O)[C@H]([C@@H](C)O)NC(=O)CNC(=O)[C@H](Cc2ccccc2)NC(=O)[C@H](CCCNC(=N)N)NC1=O [SEQ ID NO: 46] | 0.5 | 
CCCCCCCCCCCCCCCC(=O)NCCCC[C@H](NC(=O)COCCOCCN)C(=O)NCC(=O)N[C@H]1CSSC[C@@H](C(=O)N[C@H](C(=O)N[C@H](C(=O)N[C@@H](CCC(N)=O)C(=O)N[C@@H](CCCCN)C(=O)N[C@@H](CC(C)C)C(=O)N[C@@H](C)C(=O)N[C@@H](Cc2c[nH]cn2)C(=O)N[C@@H](CCC(N)=O)C(=O)N[C@H](C(=O)N[C@@H](Cc2ccc(O)cc2)C(=O)N[C@@H](CCC(N)=O)C(=O)N[C@@H](Cc2ccccc2)C(=O)N[C@H](C(=O)N[C@@H](CC(=O)O)C(=O)N[C@@H](CCCCN)C(=O)N[C@@H](CC(=O)O)C(=O)N[C@@H](CCCCN)C(=O)N[C@@H](CC(=O)O)C(=O)N[C@@H](CC(N)=O)C(=O)N[C@H](C(=O)N[C@@H](CC(=O)O)C(=O)N2CCC[C@H]2C(=O)N[C@@H](CO)C(=O)N[C@@H](CO)C(=O)N2CCC[C@H]2C(=O)N[C@@H](Cc2c[nH]cn2)C(=O)N[C@@H](CO)C(=O)N[C@@H](Cc2ccc(O)cc2)C(N)=O)C(C)C)[C@@H](C)O)[C@@H](C)CC)C(C)C)[C@@H](C)O)NC(=O)[C@H]([C@@H](C)O)NC(=O)CNC(=O)[C@H](Cc2ccccc2)NC(=O)[C@H](CCCNC(=N)N)NC1=O [SEQ ID NO: 94] | 1.3 | 11

— patent publication US20220340633A1 (Adepthera LLC, priority 2016, published 2022)
